Laboratory results published in patent EP4847498A1, “PRODRUG COMPOUND ACTIVATED BY FIBROBLAST ACTIVATION PROTEIN” (dated 2026).

The chains behind the UniProt entries cited, without tags or fusion partners.
UniProt Q12884, whole entry: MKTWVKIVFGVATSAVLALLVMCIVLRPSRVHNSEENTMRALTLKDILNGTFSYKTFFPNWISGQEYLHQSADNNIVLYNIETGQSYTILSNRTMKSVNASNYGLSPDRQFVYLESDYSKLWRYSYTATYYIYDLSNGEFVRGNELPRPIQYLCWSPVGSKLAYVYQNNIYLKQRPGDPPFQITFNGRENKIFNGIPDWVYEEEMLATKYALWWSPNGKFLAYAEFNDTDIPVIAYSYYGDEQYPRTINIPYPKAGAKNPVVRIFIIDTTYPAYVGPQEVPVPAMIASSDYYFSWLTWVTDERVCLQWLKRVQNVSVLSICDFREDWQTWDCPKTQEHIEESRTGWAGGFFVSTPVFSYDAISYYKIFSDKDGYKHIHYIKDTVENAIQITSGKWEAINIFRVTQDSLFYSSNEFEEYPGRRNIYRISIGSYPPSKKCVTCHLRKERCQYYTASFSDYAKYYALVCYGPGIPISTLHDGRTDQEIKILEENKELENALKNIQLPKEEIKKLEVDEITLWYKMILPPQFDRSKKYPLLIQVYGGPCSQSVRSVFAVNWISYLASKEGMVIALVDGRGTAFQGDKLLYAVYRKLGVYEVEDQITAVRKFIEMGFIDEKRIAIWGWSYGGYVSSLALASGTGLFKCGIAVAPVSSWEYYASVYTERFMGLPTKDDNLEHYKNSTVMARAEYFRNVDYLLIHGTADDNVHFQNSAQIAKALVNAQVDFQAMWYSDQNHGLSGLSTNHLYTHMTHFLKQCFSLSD
UniProt P48147, whole entry: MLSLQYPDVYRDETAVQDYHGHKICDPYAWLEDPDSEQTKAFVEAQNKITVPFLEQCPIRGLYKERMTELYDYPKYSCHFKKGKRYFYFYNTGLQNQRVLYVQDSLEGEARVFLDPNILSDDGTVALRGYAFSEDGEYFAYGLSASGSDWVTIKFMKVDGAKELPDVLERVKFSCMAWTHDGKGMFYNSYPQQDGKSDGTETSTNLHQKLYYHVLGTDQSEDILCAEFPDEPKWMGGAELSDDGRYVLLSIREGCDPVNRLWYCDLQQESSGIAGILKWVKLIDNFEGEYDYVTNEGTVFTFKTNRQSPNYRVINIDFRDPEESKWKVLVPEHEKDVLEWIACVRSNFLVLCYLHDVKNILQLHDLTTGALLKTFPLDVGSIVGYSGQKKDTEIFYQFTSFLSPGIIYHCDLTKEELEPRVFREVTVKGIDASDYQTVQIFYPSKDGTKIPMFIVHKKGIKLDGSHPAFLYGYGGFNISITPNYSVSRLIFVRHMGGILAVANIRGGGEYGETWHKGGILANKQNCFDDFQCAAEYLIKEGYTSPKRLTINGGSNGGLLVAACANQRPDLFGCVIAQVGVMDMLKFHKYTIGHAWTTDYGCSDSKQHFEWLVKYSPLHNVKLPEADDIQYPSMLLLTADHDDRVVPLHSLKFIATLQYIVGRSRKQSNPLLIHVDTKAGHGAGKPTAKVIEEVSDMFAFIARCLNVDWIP
UniProt P27487, whole entry: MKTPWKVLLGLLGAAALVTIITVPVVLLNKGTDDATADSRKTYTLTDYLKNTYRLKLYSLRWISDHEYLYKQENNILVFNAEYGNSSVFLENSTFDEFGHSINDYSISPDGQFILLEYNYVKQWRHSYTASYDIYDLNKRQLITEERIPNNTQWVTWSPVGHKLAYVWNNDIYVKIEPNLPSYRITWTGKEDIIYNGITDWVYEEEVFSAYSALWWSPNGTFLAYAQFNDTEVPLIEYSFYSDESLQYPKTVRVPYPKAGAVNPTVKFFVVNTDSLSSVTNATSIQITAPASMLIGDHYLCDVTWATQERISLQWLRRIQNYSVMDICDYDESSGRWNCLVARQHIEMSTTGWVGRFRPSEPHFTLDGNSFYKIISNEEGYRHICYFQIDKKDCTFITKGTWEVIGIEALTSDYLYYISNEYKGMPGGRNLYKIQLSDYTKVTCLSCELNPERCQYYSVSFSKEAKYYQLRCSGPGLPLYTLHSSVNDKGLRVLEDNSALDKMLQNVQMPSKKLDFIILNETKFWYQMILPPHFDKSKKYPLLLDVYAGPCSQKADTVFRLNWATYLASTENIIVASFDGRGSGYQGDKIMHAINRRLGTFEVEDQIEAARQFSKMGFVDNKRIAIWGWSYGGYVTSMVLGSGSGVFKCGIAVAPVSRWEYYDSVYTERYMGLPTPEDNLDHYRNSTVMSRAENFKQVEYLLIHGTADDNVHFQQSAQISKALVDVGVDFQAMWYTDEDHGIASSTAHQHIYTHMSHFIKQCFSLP

Tests used:
[1] = target: FAP (Homo sapiens, UniProt Q12884); experiment: Cleavage of AMC-conjugated FAP substrate by FAP (fluorescence intensity over incubation time); conditions: 2.5 µM substrate, 2.5 µg/mL FAP, Tris-HCl buffer pH 7.4, 37°C
Experimental: (§1) To evaluate whether the FAP substrate according to the present invention is specifically recognized and cleaved only by FAP, the following experiment was conducted. 2.5 µM of an AMC-conjugated isonicotinoyl-D-Ala-Pro moiety represented by Formula 9 below as a substrate, 2.5 µg/mL of FAP, and <1% (v/v) of DMSO were added and incubated in buffer (0.01 M Tris-HCl, pH 7.4, 0.01 M MgCl2, 0.05% Tween-20, distilled water) at 37°C. As controls, PREP and DPP4, which are peptidases similar to FAP, were added. Fluorescence intensity as a function of incubation time was measured using a microplate instrument (SYNERGY H1, BioTek), and the results are shown in FIG. 3. [drawing 44]

[2] = target: PREP (Homo sapiens, UniProt P48147); experiment: Cleavage of AMC-conjugated FAP substrate by control peptidase PREP (fluorescence); conditions: 2.5 µM substrate, PREP as control, pH 7.4, 37°C
Experimental: as §1

[3] = target: DPP4 (Homo sapiens, UniProt P27487); experiment: Cleavage of AMC-conjugated FAP substrate by control peptidase DPP4 (fluorescence); conditions: 2.5 µM substrate, DPP4 as control, pH 7.4, 37°C
Experimental: as §1

[4] = test system: U87MG cells; experiment: FAAP activation by intracellular FAP, confocal microscopy of intrinsic nintedanib fluorescence; conditions: normal group with FAP, 10 µM
Experimental: To evaluate whether FAAP is activated by FAP at the cellular level, a normal group with FAP and a group in which FAP was blocked using oncoFAP were treated with each of nintedanib and FAAP, and the uptake pattern was observed using a confocal microscope. Specifically, cells were seeded into confocal dishes at a density of 2 x 10^5 cells/mL per well, incubated for 24 hours, and then subjected to drug treatment. For drug treatment, the normal group with FAP was treated with 2 µL (10 µM) of each of FAAP and nintedanib. The group in which FAP was blocked was first treated with 10 µL (1 mM) of oncoFAP, shaken from side to side, incubated for 30 minutes, and then treated with 2 µL (10 µM) of FAAP. After drug treatment, shaking was performed using a shaker at 165 rpm for 5 minutes. After incubation in an incubator for 15 minutes, 2 hours, 6 hours, and 10 hours, the cells were washed twice with warm DPBS. The cells were incubated with 1 ml of warm 4% PFA for 15 minutes, washed twice, then fixed by filling with DPBS to keep them from drying out, and then confocal images were taken. Nintedanib drug images were obtained using a Hoechst 33258 filter.

Cc1cc(=O)oc2cc(NC(=O)[C@@H]3CCCN3C(=O)[C@@H](C)NC(=O)c3ccncc3)ccc12
cleavage of the substrate by FAP, fluorescence detected [1]: specifically cleaved only by the FAP enzyme | cleavage of the substrate by PREP [2]: not cleaved | cleavage of the substrate by DPP4 [3]: not cleaved

COC(=O)c1ccc2c(c1)NC(=O)/C2=C(\Nc1ccc(N(C)C(=O)CN2CCN(C)CC2)cc1)c1ccccc1
time after treatment at which fluorescence started [4]: 15 min
